Reference: PubChem BioAssay (Tox21)
Only a part is listed here, and it is no random draw. Inconclusive results are not listed. Active and inactive are the calls of the source. Unless noted, calls come from the whole dose curve; as a rule, active = well fitted curve in the direction sought with a large enough effect in the repeat runs; inconclusive = weak or mixed curves; inactive = no such curve, though single readings can be large; an effect the other way counts as inactive or inconclusive.

Chains of the proteins cited; added tags and fusions are not shown.
UniProt P10275, whole entry: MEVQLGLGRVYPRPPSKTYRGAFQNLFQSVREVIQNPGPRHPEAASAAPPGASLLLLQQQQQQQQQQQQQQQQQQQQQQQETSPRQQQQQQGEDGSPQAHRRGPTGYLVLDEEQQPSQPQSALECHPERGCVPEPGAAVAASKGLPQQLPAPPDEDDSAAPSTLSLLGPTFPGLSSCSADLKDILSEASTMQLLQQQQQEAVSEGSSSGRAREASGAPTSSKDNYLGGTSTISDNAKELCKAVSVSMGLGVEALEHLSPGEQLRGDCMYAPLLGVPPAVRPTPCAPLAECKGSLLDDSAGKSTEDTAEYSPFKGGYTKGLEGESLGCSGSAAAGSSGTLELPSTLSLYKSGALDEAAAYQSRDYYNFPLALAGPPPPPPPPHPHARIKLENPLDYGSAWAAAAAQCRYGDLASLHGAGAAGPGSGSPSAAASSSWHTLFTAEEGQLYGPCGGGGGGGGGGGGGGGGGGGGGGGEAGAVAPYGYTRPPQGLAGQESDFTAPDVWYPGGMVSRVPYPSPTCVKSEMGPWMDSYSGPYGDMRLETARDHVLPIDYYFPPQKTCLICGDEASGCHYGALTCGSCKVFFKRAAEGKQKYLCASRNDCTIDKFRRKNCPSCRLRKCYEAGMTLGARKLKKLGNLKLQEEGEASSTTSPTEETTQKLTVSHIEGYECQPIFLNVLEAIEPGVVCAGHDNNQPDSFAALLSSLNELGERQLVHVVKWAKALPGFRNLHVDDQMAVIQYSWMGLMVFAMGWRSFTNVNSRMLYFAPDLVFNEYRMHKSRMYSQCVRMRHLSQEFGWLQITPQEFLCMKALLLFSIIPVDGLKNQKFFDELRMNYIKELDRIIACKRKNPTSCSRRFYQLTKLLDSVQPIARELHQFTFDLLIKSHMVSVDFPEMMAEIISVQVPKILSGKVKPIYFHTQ
UniProt P11511, whole entry: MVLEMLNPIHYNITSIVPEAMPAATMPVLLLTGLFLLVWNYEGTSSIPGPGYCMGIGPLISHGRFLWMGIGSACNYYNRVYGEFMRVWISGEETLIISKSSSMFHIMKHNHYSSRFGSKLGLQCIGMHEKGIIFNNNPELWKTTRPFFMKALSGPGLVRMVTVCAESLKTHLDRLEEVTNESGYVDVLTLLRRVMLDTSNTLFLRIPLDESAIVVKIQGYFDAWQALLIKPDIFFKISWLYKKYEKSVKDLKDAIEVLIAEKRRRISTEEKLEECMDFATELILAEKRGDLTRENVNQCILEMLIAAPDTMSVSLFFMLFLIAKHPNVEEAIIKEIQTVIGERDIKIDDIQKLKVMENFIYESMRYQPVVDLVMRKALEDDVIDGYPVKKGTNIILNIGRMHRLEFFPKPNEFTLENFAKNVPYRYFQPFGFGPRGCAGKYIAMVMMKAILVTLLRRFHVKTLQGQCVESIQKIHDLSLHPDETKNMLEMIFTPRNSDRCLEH
UniProt P35869, whole entry: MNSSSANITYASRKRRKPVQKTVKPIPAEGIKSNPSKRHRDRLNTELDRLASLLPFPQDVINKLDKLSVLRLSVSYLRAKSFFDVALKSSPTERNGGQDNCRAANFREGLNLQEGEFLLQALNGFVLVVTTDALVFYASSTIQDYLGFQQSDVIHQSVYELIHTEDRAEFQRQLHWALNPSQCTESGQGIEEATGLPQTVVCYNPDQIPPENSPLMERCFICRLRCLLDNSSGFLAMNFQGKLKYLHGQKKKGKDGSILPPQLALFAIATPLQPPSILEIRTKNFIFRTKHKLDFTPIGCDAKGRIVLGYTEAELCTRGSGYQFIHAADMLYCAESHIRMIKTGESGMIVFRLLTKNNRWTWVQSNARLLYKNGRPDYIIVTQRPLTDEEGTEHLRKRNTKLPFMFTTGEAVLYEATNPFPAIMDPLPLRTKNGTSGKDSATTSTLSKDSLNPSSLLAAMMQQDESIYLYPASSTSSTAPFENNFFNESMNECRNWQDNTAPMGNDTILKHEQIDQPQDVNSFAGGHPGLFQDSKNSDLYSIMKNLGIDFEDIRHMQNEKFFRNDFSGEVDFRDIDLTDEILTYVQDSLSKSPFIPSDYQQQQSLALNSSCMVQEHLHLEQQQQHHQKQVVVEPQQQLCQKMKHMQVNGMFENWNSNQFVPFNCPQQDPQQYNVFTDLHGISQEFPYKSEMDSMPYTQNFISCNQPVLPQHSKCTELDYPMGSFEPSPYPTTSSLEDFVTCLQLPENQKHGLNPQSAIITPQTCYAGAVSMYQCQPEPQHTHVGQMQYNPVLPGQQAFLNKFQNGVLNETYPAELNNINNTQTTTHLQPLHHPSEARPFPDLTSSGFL
UniProt P37231, whole entry: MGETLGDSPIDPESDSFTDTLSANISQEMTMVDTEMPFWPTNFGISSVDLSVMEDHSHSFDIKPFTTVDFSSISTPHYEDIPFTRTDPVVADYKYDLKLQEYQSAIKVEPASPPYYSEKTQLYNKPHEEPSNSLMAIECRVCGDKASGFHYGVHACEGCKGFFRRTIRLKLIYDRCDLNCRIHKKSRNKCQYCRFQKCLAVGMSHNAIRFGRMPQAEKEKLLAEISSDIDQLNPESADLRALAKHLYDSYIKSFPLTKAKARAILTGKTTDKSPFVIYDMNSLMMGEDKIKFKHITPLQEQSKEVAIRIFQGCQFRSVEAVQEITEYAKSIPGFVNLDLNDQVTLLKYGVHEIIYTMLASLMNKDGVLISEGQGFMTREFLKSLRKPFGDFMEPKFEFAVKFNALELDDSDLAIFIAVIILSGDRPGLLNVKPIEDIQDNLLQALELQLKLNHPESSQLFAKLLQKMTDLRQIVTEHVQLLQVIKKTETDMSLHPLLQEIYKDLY
UniProt P03372, whole entry: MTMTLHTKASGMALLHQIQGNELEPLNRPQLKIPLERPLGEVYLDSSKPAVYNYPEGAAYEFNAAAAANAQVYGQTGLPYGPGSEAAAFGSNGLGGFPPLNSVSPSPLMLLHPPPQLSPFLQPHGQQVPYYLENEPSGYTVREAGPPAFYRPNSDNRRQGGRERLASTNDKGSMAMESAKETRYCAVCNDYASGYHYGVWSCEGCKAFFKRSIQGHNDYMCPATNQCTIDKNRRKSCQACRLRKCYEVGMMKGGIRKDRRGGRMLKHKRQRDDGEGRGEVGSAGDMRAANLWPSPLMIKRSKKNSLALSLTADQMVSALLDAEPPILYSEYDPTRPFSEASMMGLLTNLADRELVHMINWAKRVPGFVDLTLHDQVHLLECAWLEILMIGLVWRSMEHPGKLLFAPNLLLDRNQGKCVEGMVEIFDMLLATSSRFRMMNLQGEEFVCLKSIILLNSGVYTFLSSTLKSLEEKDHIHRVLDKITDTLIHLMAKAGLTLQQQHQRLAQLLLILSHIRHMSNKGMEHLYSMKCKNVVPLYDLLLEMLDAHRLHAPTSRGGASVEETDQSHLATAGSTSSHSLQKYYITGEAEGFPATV

Legend:
[1] = qHTS assay for identifying genotoxic compounds that show differential cytotoxicity against isogenic chicken DT40 cell lines with known DNA damage response pathways - Rad54/Ku70 mutant cell line (AID 743015); note: nearly all actives have a fitted effect of over 60% in size
[2] = molecular target: Androgen receptor (Homo sapiens) (UniProt P10275); test: qHTS assay to identify small molecule antagonists of the androgen receptor (AR) signaling pathway (AID 743035; active = well fitted inhibition curve with a large enough effect in the signal ratio in the repeat runs, not every such curve was filed as active; the % refers to the signal ratio); settings: HEK293 AR-UAS-bla, R1881-stimulated, beta-lactamase FRET, 16 h; at 58.5 µM (top of the series) unless noted
[3] = molecular target: Androgen receptor (Homo sapiens) (UniProt P10275); test: qHTS assay to identify small molecule agonists of the androgen receptor (AR) signaling pathway (AID 743036; active = well fitted activation curve with a large enough effect in the signal ratio in the repeat runs, with a control signal flat, not every such curve was filed as active; the % refers to the signal ratio); settings: HEK293 AR-UAS-bla GripTite, beta-lactamase FRET ratio, 16 h; at 62.4 µM (top of the series) unless noted
[4] = molecular target: Androgen receptor (Homo sapiens) (UniProt P10275); test: qHTS assay to identify small molecule agonists of the androgen receptor (AR) signaling pathway using the MDA cell line (AID 743040; note: nearly all actives have a fitted effect of over 20% in size); settings: MDA-kb2 AR-luc cells, MMTV luciferase, 16 h, active compounds read high; at 70.3 µM (top of the series) unless noted
[5] = qHTS assay to identify small molecule antagonists of the thyroid receptor (TR) signaling pathway - cell viability counter screen (AID 743064); note: nearly all actives have a fitted effect of over 50% in size
How it was run: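 Rat GH3 pituitary tumor cells stably expressing two TR response elements driving luciferase were plated, rested 4 h, then dosed with library compounds and T3 (1 nM final). After 23.5 h at 37 °C, CellTiter-Fluor was added for 30 min and fluorescence recorded.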

[6] = qHTS assay to identify small molecule antagonists of the thyroid receptor (TR) signaling pathway (AID 743065); note: nearly all actives have a fitted effect of over 55% in size
How it was run: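 GH3.TRE-Luc rat pituitary cells (two TREs driving luciferase) were dosed with compound, then stimulated with 1 nM T3 (final) for 23.5 h at 37 C. ONE-Glo luminescence was the read-out, with CellTiter-Fluor fluorescence as the cytotoxicity counter-screen.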

[7] = test system: thyroid hormone receptor (rat, GH3 cells); test: qHTS assay to identify small molecule agonists of the thyroid receptor (TR) signaling pathway (AID 743066; calls by dose curve); settings: GH3.TRE-Luc cells, TR agonist luciferase, 24 h
[8] = qHTS assay to identify small molecule antagonists of the estrogen receptor alpha (ER-alpha) signaling pathway - cell viability counter screen (AID 743074; calls by dose curve;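 note: HEK293 cells carrying ER-alpha-UAS-bla reporter stimulated with 17beta-estradiol; nearly all actives have a fitted effect of over 45% in size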); settings: ERalpha-bla HEK293 viability, CellTiter-Glo luminescence, 18 h
[9] = qHTS assay to identify small molecule antagonists of the estrogen receptor alpha (ER-alpha) signaling pathway using the BG1 cell line - cell viability counter screen (AID 743081);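 note: compound given together with 17beta-estradiol as the ER stimulus; nearly all actives have a fitted effect of over 45% in size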
Aromatase (Homo sapiens) = Aromatase (Homo sapiens) (UniProt P11511); test: qHTS assay to identify aromatase inhibitors (AID 743083); settings: MCF-7 aro ERE, testosterone-driven ERE luciferase, 24 h; note: nearly all actives have a fitted effect of over 55% in size
[10] = qHTS assay to identify aromatase inhibitors - cell viability counter screen (AID 743084); settings: MCF-7 aro ERE viability, CellTiter-Fluor, 24 h;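 note: cells stimulated with testosterone during compound exposure; nearly all actives have a fitted effect of over 55% in size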
[11] = molecular target: Aryl hydrocarbon receptor (Homo sapiens) (UniProt P35869); test: qHTS assay to identify small molecule that activate the aryl hydrocarbon receptor (AhR) signaling pathway (AID 743085);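 note: HG2L7.5c1 human HepG2 liver cells with stably integrated DRE-driven firefly reporter; nearly all actives have a fitted effect of over 15% in size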
[12] = qHTS assay to identify small molecule that activate the aryl hydrocarbon receptor (AhR) signaling pathway - cell viability counter screen (AID 743086);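 note: HepG2 liver cells carrying the AhR DRE luciferase reporter; nearly all actives have a fitted effect of over 45% in size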
How it was run: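 HepG2-AhR-luc (HG2L7.5c1) cells, 4000/well, treated 24 h at 37 C with compound; viability measured as CellTiter-Fluor fluorescence after 30 min in the same wells as the luciferase read.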

[13] = molecular target: Peroxisome proliferator-activated receptor gamma (Homo sapiens) (UniProt P37231); test: qHTS assay to identify small molecule agonists of the peroxisome proliferator-activated receptor gamma (PPARg) signaling pathway (AID 743094; active = well fitted activation curve with a large enough effect in the signal ratio in the repeat runs, not every such curve was filed as active; the % refers to the signal ratio); settings: HEK293H PPARg-UAS-bla, beta-lactamase FRET ratio, 17 h
How it was run: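 Agonism was assessed in a beta-lactamase reporter system, HEK293H cells with a stably integrated UAS-bla construct under PPARg control; the 17 h treatment at 37C preceded a 1 h room-temperature FRET substrate read.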

[14] = qHTS assay to identify small molecule antagonists of the androgen receptor (AR) signaling pathway using the MDA cell line - cell viability counter screen (AID 743041; note: nearly all actives have a fitted effect of over 45% in size); settings: MDA-kb2 viability, CellTiter-Fluor, 16 h, cells co-treated with R1881 androgen agonist
How it was run: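 Cytotoxicity counter screen: MDA-kb2 AR-luc cells, compound + R1881, 16 h, 37C, 0% CO2; CellTiter-Fluor added at 15.5 h, fluorescence read after 30 min.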

[15] = molecular target: Androgen receptor (Homo sapiens) (UniProt P10275); test: qHTS assay to identify small molecule antagonists of the androgen receptor (AR) signaling pathway using the MDA cell line (AID 743042; note: nearly all actives have a fitted effect of over 55% in size); settings: MDA-kb2 AR-luc, MMTV luciferase, R1881 antagonist, 16 h; at 70.3 µM (top of the series) unless noted
[16] = qHTS assay to identify small molecule antagonists of the peroxisome proliferator-activated receptor gamma (PPARg) signaling pathway - cell viability counter screen (AID 743194); settings: PPARg-bla HEK293H viability, CellTiter-Glo luminescence, 17 h, co-treated with 50 nM rosiglitazone; note: nearly all actives have a fitted effect of over 55% in size
How it was run: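 Cytotoxicity counter screen in PPARg-bla HEK293H cells, same wells as reporter assay. Compounds plus 50 nM rosiglitazone (final) for 17 h at 37 C, then viability read by CellTiter-Glo luminescence.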

[17] = molecular target: Estrogen receptor (Homo sapiens) (UniProt P03372); test: qHTS assay to identify small molecule antagonists of the estrogen receptor alpha (ER-alpha) signaling pathway (AID 743069; active = well fitted curve in the direction sought with a large enough effect in the signal ratio in the repeat runs, not every such curve was filed as active; the % refers to the signal ratio); settings: HEK293 ER-alpha-UAS-bla, beta-lactamase ratio, antagonist mode
How it was run: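 Beta-lactamase FRET fluorescence is read after 2 hr at room temperature with LiveBLAzer B/G substrate. Before that, ER-alpha-bla HEK293 cells sit 4 hr after plating, then receive compound plus 17beta-estradiol and incubate 18 hr at 37C.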

[18] = molecular target: Estrogen receptor (Homo sapiens) (UniProt P03372); test: qHTS assay to identify small molecule agonists of the estrogen receptor alpha (ER-alpha) signaling pathway (AID 743075; calls by dose curve;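 note: HEK293 GripTite cells with ER-alpha and UAS-driven beta-lactamase reporter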); settings: HEK293 ER-alpha-UAS-bla, beta-lactamase FRET ratio, 18 h
[19] = molecular target: Estrogen receptor (Homo sapiens) (UniProt P03372); test: qHTS assay to identify small molecule agonists of the estrogen receptor alpha (ER-alpha) signaling pathway using the BG1 cell line (AID 743079); note: nearly all actives have a fitted effect of over 20% in size; note: potency is the fitted concentration of half-maximal effect
% is set by controls: 0 for no effect and ±100 for the full control effect.

**Q.** For CN(C)CCS, which Potency [1] is on record?
**A.** inactive

**Q.** What about the activity change, negative = inhibition [2] of the same compound?
**A.** inactive: 5.69%

**Q.** And the activation [3]?
**A.** inactive: -3.88%

**Q.** And the activity change [4]?
**A.** inactive: 1.15%

**Q.** What about the Potency [5] of the same compound?
**A.** inactive

**Q.** And the Potency [6]?
**A.** inactive

**Q.** And the activation ([7]; at 83.9 µM (top of the series))?
**A.** inactive: 1.47%

**Q.** What about the activity, negative = cytotoxicity ([8]; at 69.4 µM (top of the series)) of the same compound?
**A.** inactive: 8.3%

**Q.** And the Potency [9]?
**A.** inactive

**Q.** And the activity, negative = inhibition (Aromatase (Homo sapiens); at 70.3 µM (top of the series))?
**A.** inactive: 15.9%

**Q.** What about the activity change, negative = cytotoxicity ([10]; at 70.3 µM (top of the series)) of the same compound?
**A.** inactive: 10.1%

**Q.** And the Potency [11]?
**A.** inactive

**Q.** What about the Potency [12] of the same compound?
**A.** inactive

**Q.** What about the activation ([13]; at 57 µM (top of the series)) of the same compound?
**A.** inactive: 0.769%

**Q.** What does the source list for CC(C)N(CCO)C(C)C?
**A.** Potency [1]: inactive; activity change, negative = inhibition [2]: inactive: -12.7%; activation [3]: inactive: -2.61%; activity change [4]: inactive: 2.02%; viability change, negative = cytotoxic ([14]; at 70.3 µM (top of the series)): inactive: -24.7%; activity change, negative = inhibition [15]: inactive: 5.3%; Potency [5]: inactive; Potency [6]: inactive; activation ([7]; at 83.9 µM (top of the series)): inactive: -0.644%; activity, negative = cytotoxicity ([8]; at 69.4 µM (top of the series)): inactive: -8.02%; Potency [9]: inactive; activity, negative = inhibition (Aromatase (Homo sapiens); at 70.3 µM (top of the series)): inactive: 2.4%; activity change, negative = cytotoxicity ([10]; at 70.3 µM (top of the series)): inactive: 11.9%; Potency [11]: inactive; Potency [12]: inactive; activation ([13]; at 57 µM (top of the series)): inactive: 3.93%; activity change, negative = cytotoxicity ([16]; at 62.6 µM (top of the series)): inactive: 3.35%

**Q.** Which Potency [1] does the source give for COc1ccc([N+](=O)[O-])cc1[N+](=O)[O-] here?
**A.** inactive

**Q.** And the viability change, negative = cytotoxic ([14]; at 70.3 µM (top of the series))?
**A.** inactive: 0.342%

**Q.** And the Potency [5]?
**A.** inactive

**Q.** And the activation ([7]; at 83.9 µM (top of the series))?
**A.** inactive: -1.66%

**Q.** What about the activity, negative = inhibition ([17]; at 69.4 µM (top of the series)) of the same compound?
**A.** inactive: -18.3%

**Q.** What about the activity, negative = cytotoxicity ([8]; at 69.4 µM (top of the series)) of the same compound?
**A.** inactive: -2.7%

**Q.** What about the activation ([18]; at 70.1 µM (top of the series)) of the same compound?
**A.** inactive: -4.5%

**Q.** And the Potency [19]?
**A.** inactive

**Q.** And the Potency [9]?
**A.** inactive

**Q.** And the activity, negative = inhibition (Aromatase (Homo sapiens); at 70.3 µM (top of the series))?
**A.** inactive: 8.43%

**Q.** What about the activity change, negative = cytotoxicity ([10]; at 70.3 µM (top of the series)) of the same compound?
**A.** inactive: 15%

**Q.** And the Potency [12]?
**A.** inactive

**Q.** And the activation ([13]; at 57 µM (top of the series))?
**A.** inactive: 0.365%

**Q.** What about the activity change, negative = cytotoxicity ([16]; at 62.6 µM (top of the series)) of the same compound?
**A.** inactive: 1.81%

**Q.** For CC(C)N(CCCl)C(C)C, which Potency [1] is on record?
**A.** inactive

**Q.** What about the viability change, negative = cytotoxic ([14]; at 70.3 µM (top of the series)) of the same compound?
**A.** inactive: 10.8%

**Q.** What about the Potency [5] of the same compound?
**A.** inactive

**Q.** What about the Potency [6] of the same compound?
**A.** inactive

**Q.** And the activation ([7]; at 83.9 µM (top of the series))?
**A.** inactive: 0.884%

**Q.** What about the activity, negative = inhibition ([17]; at 69.4 µM (top of the series)) of the same compound?
**A.** inactive: -24.6%

**Q.** What about the activity, negative = cytotoxicity ([8]; at 69.4 µM (top of the series)) of the same compound?
**A.** inactive: 13.1%

**Q.** And the activation ([18]; at 70.1 µM (top of the series))?
**A.** inactive: 2.91%

**Q.** And the Potency [19]?
**A.** active: 13.3 µM

**Q.** What about the activity, negative = inhibition (Aromatase (Homo sapiens); at 70.3 µM (top of the series)) of the same compound?
**A.** inactive: -8.45%

**Q.** And the activity change, negative = cytotoxicity ([10]; at 70.3 µM (top of the series))?
**A.** inactive: 11.3%

**Q.** And the Potency [11]?
**A.** inactive

**Q.** What about the Potency [12] of the same compound?
**A.** inactive

**Q.** What about the activation ([13]; at 57 µM (top of the series)) of the same compound?
**A.** inactive: -5.28%

**Q.** With N=C(N)N[N+](=O)[O-] as the compound, how does the Potency [1] read?
**A.** inactive

**Q.** What about the activity change, negative = inhibition [2] of the same compound?
**A.** inactive: 3.8% [at 78.9 µM]

**Q.** What about the activation [3] of the same compound?
**A.** inactive: 0.285% [at 79.1 µM]

**Q.** What about the activity change [4] of the same compound?
**A.** inactive: -0.399% [at 95 µM]

**Q.** What about the viability change, negative = cytotoxic ([14]; at 95 µM (top of the series)) of the same compound?
**A.** inactive: -4.14%

**Q.** What about the activity change, negative = inhibition [15] of the same compound?
**A.** inactive: -0.745% [at 95 µM]

**Q.** What about the Potency [5] of the same compound?
**A.** inactive

**Q.** And the Potency [6]?
**A.** inactive

**Q.** What about the activation ([7]; at 95.2 µM (top of the series)) of the same compound?
**A.** inactive: -0.466%

**Q.** What about the activity, negative = inhibition ([17]; at 79.1 µM (top of the series)) of the same compound?
**A.** inactive: -4.46%

**Q.** And the activity, negative = cytotoxicity ([8]; at 79.1 µM (top of the series))?
**A.** inactive: 11.9%

**Q.** And the activation ([18]; at 79.1 µM (top of the series))?
**A.** inactive: -1.36%

**Q.** And the Potency [19]?
**A.** inactive

**Q.** And the Potency [9]?
**A.** inactive

**Q.** What about the activity, negative = inhibition (Aromatase (Homo sapiens); at 95 µM (top of the series)) of the same compound?
**A.** inactive: 3.4%

**Q.** What about the activity change, negative = cytotoxicity ([10]; at 95 µM (top of the series)) of the same compound?
**A.** inactive: -10.9%

**Q.** What about the Potency [11] of the same compound?
**A.** inactive

**Q.** What about the Potency [12] of the same compound?
**A.** inactive

**Q.** What about the activation ([13]; at 78.9 µM (top of the series)) of the same compound?
**A.** inactive: 4.52%

**Q.** And the activity change, negative = cytotoxicity ([16]; at 81.1 µM (top of the series))?
**A.** inactive: 2.84%
